The values that follow come from patent publication US12473270B2, “CB1R receptor blockers with acyclic backbones” (YISSUM RESEARCH DEVELOPMENT COMPANY OF THE HEBREW …, priority 2019, dated 2025).

Chains of the proteins cited; added tags and fusions are not shown.
UniProt P47746, whole entry: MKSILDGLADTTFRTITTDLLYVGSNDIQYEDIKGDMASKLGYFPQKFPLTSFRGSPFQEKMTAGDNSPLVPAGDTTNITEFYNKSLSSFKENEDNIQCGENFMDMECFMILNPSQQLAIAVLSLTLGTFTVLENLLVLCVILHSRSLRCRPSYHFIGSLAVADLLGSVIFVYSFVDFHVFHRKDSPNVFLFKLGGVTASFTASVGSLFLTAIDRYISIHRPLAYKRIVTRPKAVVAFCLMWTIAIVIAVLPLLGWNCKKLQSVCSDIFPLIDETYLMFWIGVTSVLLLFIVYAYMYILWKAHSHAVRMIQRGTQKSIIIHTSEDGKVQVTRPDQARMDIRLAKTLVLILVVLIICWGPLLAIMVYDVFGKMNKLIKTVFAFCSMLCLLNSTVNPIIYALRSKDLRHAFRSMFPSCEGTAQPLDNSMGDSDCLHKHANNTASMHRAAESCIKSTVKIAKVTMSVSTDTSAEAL

The structures appear in SMILES notation.

The target of this assay is T1, CB1 receptor (Mus musculus, UniProt P47746).
T1 construct: crude membranes from mouse brain for CB1 receptor; from tissue; host or cells: mouse brain membranes (crude / P2)
Briefly: [35S]GTPγS binding in mouse brain membranes. It is filed as biochemical. To be noted: compound alone. The method, then:
[^35S]GTPγS binding. Mouse brains were dissected and P2 membranes prepared and resuspended at ˜6 μg protein/μL in 1 ml assay buffer (50 mM Tris HCl, 9 mM MgCl2, 0.2 mM EGTA, 150 mM NaCl; pH 7.4). […] Briefly, membranes (10 μg protein) were incubated in assay buffer containing 100 μM GDP, 0.05 nM [^35S]GTPγS, test compounds at 1 nM-1 μM, and 1.4 mg/mL fatty acid-free BSA in siliconized glass tubes. Bound ligand was separated from free by vacuum filtration. Non-specific binding was determined using 10 μM GTPS. Basal binding was assayed in the absence of the ligand and in the presence of GDP.

Regarding `Cc1c(C(=O)NN2CCCCC2)nn(-c2ccc(Cl)cc2Cl)c1-c1ccc(Cl)cc1` [rimonabant, reference compound], the “GTPγS binding in mouse brain membranes” value is “reduces GTPγS binding”.
